# Cyclic peptide permeability, from CycPeptMPDB

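Conditions beyond the assay type are not listed; see the original paper. The list need not hold all peptides of the study. Entries at the database's floor value (log10 P of -10) are not listed.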

PAMPA measures passive passage through an artificial lipid membrane. Permeability is in 10^-6 cm/s, converted from the database's log10 values; higher is more permeable.

structure (SMILES),PAMPA (10^-6 cm/s)
CC(C)C[C@@H]1C(=O)N[C@@H](Cc2ccccc2)CC(=O)N2CCC[C@@H]2C(=O)N(C)[C@@H](CC(C)C)C(=O)N[C@@H](Cc2ccccc2)C(=O)N2CCC[C@@H]2C(=O)N[C@H](C)C(=O)N1C,6.6
CC(C)C[C@@H]1NC(=O)[C@H](CC(C)C)N(C)C(=O)[C@H](C)NC(=O)[C@H](Cc2ccccc2)NC(=O)CN(Cc2ccccc2)C(=O)[C@H]2CCCN2C1=O,1.8
CC(C)C[C@H]1C(=O)N[C@@H](Cc2ccccc2)CC(=O)N2CCC[C@H]2C(=O)N(Cc2ccccc2)CC(=O)N[C@@H](Cc2ccccc2)C(=O)N2CCC[C@@H]2C(=O)N(C)[C@@H](C)C(=O)N1C,1.7
CC(C)C[C@@H]1NC(=O)[C@@H]2CCCN2C(=O)C[C@H](Cc2ccccc2)NC(=O)[C@H](CC(C)C)N(C)C(=O)[C@@H](C)N(C)C(=O)[C@@H]2CCCN2C(=O)[C@H](Cc2ccccc2)NC1=O,0.4
CC(C)C[C@@H]1C(=O)N[C@H](CC(C)C)C(=O)N2CCC[C@H]2C(=O)N(C)[C@@H](CC(C)C)C(=O)N[C@@H](Cc2ccccc2)C(=O)N[C@H](C)C(=O)N1C,4.2
CCCN1CC(=O)N(C)[C@H](CC(C)C)C(=O)N[C@@H](CC(C)C)C(=O)N2CCC[C@@H]2C(=O)N(C)[C@@H](CC(C)C)C(=O)N[C@@H](Cc2ccccc2)C(=O)N2CCC[C@H]2C1=O,11
CCCN1CC(=O)N[C@H](CC(C)C)C(=O)N(Cc2ccccc2)CC(=O)N2CCC[C@H]2C(=O)N(C)[C@@H](CC(C)C)C(=O)N[C@@H](Cc2ccccc2)C1=O,13
CC(C)C[C@@H]1C(=O)N[C@@H](Cc2ccccc2)C(=O)N2CCC[C@H]2C(=O)N[C@H](C)C(=O)N(C)[C@@H](CC(C)C)C(=O)N(C)[C@@H](CC(C)C)C(=O)N2CCC[C@H]2C(=O)N1C,3.2
CC(C)C[C@@H]1NC(=O)C[C@H](Cc2ccccc2)NC(=O)[C@@H]2CCCN2C(=O)[C@H](Cc2ccccc2)NC(=O)[C@H](CC(C)C)NC(=O)[C@@H]2CCCN2C(=O)[C@@H](CC(C)C)NC1=O,0.51
CCCN1CC(=O)N(C)[C@H](CC(C)C)C(=O)N[C@@H](CC(C)C)C(=O)N2CCC[C@@H]2C(=O)N(C)[C@@H](CC(C)C)C(=O)N[C@@H](Cc2ccccc2)C1=O,8.9
CC(C)C[C@@H]1NC(=O)[C@H](C)NC(=O)[C@@H]2CCCN2C(=O)[C@H](Cc2ccccc2)NC(=O)[C@@H](CC(C)C)NC(=O)[C@H]2CCCN2C(=O)[C@@H](CC(C)C)NC1=O,0.2
CC(C)C[C@@H]1NC(=O)[C@@H](C)N(C)C(=O)[C@@H]2CCCN2C(=O)[C@H](Cc2ccccc2)NC(=O)[C@H](CC(C)C)N(C)C(=O)[C@H]2CCCN2C(=O)CN(Cc2ccccc2)C1=O,2
CC(C)C[C@@H]1NC(=O)[C@@H](CC(C)C)N(C)C(=O)C[C@H](Cc2ccccc2)NC(=O)[C@H](Cc2ccccc2)NC(=O)[C@H](CC(C)C)N(C)C(=O)[C@@H]2CCCN2C1=O,7.9

Data: CycPeptMPDB; original report Townsend et al. 2020, doi:10.26434/chemrxiv.13335941.v1.